The test addresses 5-hydroxytryptamine receptor 1A (Rattus norvegicus, UniProt P19327). Briefly: Binding affinity to 5HT1A receptor in rat cortex membrane. The format is cell membranes.

Protein sequences, listed by entry. Tags and fused reporters are not part of them.
UniProt P19327, whole entry: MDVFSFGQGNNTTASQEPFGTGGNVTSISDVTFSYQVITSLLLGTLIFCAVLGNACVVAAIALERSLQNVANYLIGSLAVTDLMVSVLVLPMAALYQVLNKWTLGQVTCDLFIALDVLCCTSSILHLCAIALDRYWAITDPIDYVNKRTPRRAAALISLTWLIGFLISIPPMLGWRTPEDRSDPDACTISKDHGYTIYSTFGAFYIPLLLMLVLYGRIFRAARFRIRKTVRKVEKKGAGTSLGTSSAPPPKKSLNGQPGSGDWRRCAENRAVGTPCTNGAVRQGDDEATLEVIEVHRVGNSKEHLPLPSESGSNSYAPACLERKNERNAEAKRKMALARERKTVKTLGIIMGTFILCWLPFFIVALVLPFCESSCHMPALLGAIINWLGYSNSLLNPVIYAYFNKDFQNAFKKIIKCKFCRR

By Ki is commonly meant the equilibrium dissociation constant of an inhibitor or competing ligand from its target. Turning to `NCCc1c[nH]c2ccc(O)cc12` [SEROTONIN], the Ki is 1.86 nM.
